Values quoted from earlier work, collected in patent US20050250835A1, “Novel tumor-selective chemotherapeutic agents” (priority 2004, published 2005).

How the values were obtained:
[1] = test system: malignant mesothelioma of the pleura or peritoneum; conditions: cited from earlier work
[2] = test system: different human tumor xenografts; conditions: human tumor xenografts s.c. in nude mice; cited from earlier work
[3] = cited from earlier work
[4] = test system: metastatic renal cell carcinoma; conditions: cited from earlier work
[5] = weekly i.v. infusion of 50 mg/m^2, 29 patients
[6] = 17 patients, 50 mg/m^2 once a week intravenously

MTX-HSA
patients with NC>3 month ([1]; 23/29 patients assessed): 11 patients | patients with early disease progression within the first 2 months ([1]; 23/29 patients assessed): 6 patients | grade 3 stomatitis [1, 5]: 10% | grade 3 thrombopenia [1, 5]: 2% | grade 4 stomatitis [1, 5]: 2% | grade 4 thrombopenia [1, 5]: 12% | antitumor activity in vivo [2]: dose-dependent antitumor activity | tolerability ([3]; 20, 40, 50 and 60 mg/m^2, 17 patients): well tolerated | patients with tumor responses ([3]; Phase I study of 17 patients): three | duration of stable disease ([4]; 50 mg/m^2 once a week): up to 8 months | objective responses [4, 6]: no objective responses | patients with stable disease (stabilization>2 months) [4, 6]: Eight
